# Reference: PubChem BioAssay AID1671190 (National Center for Advancing Translational Sciences (NCATS), 2021)
# Amino acid sequences for entries named in this document (tags omitted).
# UniProt P18054, whole entry: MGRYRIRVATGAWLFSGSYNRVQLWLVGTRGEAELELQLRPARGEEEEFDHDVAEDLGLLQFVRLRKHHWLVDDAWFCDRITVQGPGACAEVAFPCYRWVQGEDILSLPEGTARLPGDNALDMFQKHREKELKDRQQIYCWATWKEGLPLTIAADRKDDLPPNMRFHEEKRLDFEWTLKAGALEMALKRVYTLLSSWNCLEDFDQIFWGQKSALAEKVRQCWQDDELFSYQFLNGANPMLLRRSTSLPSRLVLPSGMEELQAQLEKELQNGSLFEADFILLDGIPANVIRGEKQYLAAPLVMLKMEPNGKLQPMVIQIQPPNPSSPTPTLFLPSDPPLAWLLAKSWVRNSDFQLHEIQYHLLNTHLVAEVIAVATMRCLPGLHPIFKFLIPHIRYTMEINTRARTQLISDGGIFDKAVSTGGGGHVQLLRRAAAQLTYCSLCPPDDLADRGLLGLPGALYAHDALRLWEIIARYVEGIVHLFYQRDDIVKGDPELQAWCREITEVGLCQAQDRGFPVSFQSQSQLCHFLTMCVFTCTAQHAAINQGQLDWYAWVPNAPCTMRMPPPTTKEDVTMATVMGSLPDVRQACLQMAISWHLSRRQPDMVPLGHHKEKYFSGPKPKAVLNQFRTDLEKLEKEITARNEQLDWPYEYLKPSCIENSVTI
# Several values for one entry are separate records, joined by “and”; a condition that tells them apart may be missing. Identical values can stand only once. Only a part is listed here, and it is no random draw. Some of these compounds have results that are not shown, active ones among them. Results filed as inconclusive are left out. Activity calls are given as the source filed them. The call rests on the fitted dose curve; in most records, active means well fitted inhibition curve with a large enough effect; inconclusive means small, poorly fitted or top-dose-only effect, or another doubt; inactive means no such curve, though single readings can be large or run the other way.
# Biological target: Polyunsaturated fatty acid lipoxygenase ALOX12 (Homo sapiens) (UniProt P18054)
# Experiment: Primary qHTS assay for inhibitors of human arachidonate 12S-lipoxygenase (ALOX12): Round 2
# Settings: purified 12hLO, xylenol orange hydroperoxide absorbance; at 108 µM (top of the series)
# Text: Assay Provider: Theodore R. Holman Ph.D. University of California, Santa Cruz, California Human lipoxygenase 12hLO is a member of the closely related lipoxygenase family of enzymes which catalyze the site-specific oxidation of arachidonic acid to various hormone precursor molecules and as such is a candidate for drug development in a variety of disease areas, such as cancer and inflammation. Inhibition of 12hLO activity was screened by utilizing arachidonic acid as a substrate. The extent of hydroperoxide product formation was measured by a secondary chromogenic reaction in which xylenol orange (XO, Sigma-Aldrich, cat. number 39,818-7) reacts with the ferric ions produced from the reaction between the hydroperoxide and ferrous ions. The Fe (III)-XO complex is characterized with red-shifted absorbance at 560 nm. A purified preparation of human 12hLO was supplied by Dr. Holman laboratory, University of California, Santa Cruz.
# PROTOCOL TABLE SEQUENCE No. (e.g., 1, 2, 3, etc.); […] (e.g., Cells, Incubation, Reagent, etc.); VALUE; DESCRIPTION 1; Enzyme; 3 uL; 150 nM 12hLO enzyme solution dispensed in 1536-well Greiner black, clear bottom plates. 2; Compound; 23 nL; compounds and controls were added. 3; Incubate; 15 min; room temperature. 4; Substrate; 1 uL; 40 uM arachidonic acid (final concentration). 5; Incubate; 30 min; room temperature. 6; Reagent; 4 uL; Fe-XO solution was added to each well. 7; Incubation; 30 min; room temperature 8; Detector; absorbance; Read 1 at 405 nm absorbance using ViewLux (Perkin-Elmer) CCD imager. 9; Detector; absorbance; Read 2 at 573 nm absorbance using ViewLux (Perkin-Elmer) CCD imager. NOTES (numbers refer to sequence above) 1; 150 nM 12hLO (final concentration) in buffer solution (25 mM Hepes, 0.01% Triton X-100, pH 7.0) was dispensed in columns 1, 2, 5-48. Column 1 is neutral (100% activity). Buffer only was dispensed in columns 3 and 4 as no enzyme negative controls. The plates were covered with metal lids with gas-exchange holes. 2; Compounds were pin transferred via a Kalypsys Pin Tool (Wako USA) in column 5-48. Control compound was transferred in column 2, titration of nordihydroguaiaretic acid (NDGA, Sigma-Aldrich, N5023) with top concentration of 20 mM in DMSO then 1:3 dilution in duplicate. Dilution factor of 23 nL into 4 uL final assay volume. 3; Covered assay plates were incubated for 15 min at room temperature. 4; Substrate was added to start the reaction; 40 uM arachidonic acid (Sigma-Aldrich, St. Louis, MO) was dispensed throughout the plate. 6; Chromogenic detection reagent solution (divalent iron/xylenol orange, Fe-XO) was added to each well: 200 uM xylenol orange, 300 uM ferrous ammonium sulfate prepared freshly in 50 mM sulfuric acid. 8, 9; Two absorbance readouts were obtained at 405 nm and at 573 nm using a ViewLux high-throughput CCD plate imager (Perkin-Elmer). The 573 to 405 (Read 2 / Read 1) absorbance ratio was used to compute reaction progress.
# On the % scale 0 is the no-effect control and ±100 the full control effect.
row,SMILES,"activity change, negative = inhibition"
1,CN(C)C1(CNC(=O)c2ccc(Br)cc2)CCCCC1,inactive: 6.13%
2,COc1cc(C(=O)NCC2(N(C)C)CCCCC2)c([N+](=O)[O-])cc1OC,inactive: 13.1%
3,COc1ccc(Cl)cc1C(=O)NCC1(N(C)C)CCCCC1,inactive: 0%
4,COc1cccc(C(=O)NCC2(N3CCCCC3)CCCCC2)c1,inactive: 12.5%
5,COc1ccc(C(=O)NCC2(N(C)C)CCCCC2)cc1Cl,inactive: -20.5%
6,O=C(NCC1(N2CCCCC2)CCCCC1)c1cccc(Cl)c1,inactive: -2.29%
7,O=C(OC1CN2CCC1CC2)C(CO)(c1ccccc1)c1ccccc1 (centres undefined),inactive: -1.54%
8,C=C(C)C#CC(O)(C(=O)OC1CCN(C)CC1)c1ccccc1 (centres undefined),inactive: 2.51%
9,COc1ccc(Br)c(C(=O)NCC2(N3CCCCC3)CCCCC2)c1,inactive: 17.6%
10,COc1cc(C(=O)NCC2(N(C)C)CCCCC2)cc(OC)c1OC,inactive: -18.9%
11,Cc1cccc(C(=O)NCC2(N(C)C)CCCCC2)c1,inactive: -26.3%
12,O=C(OCCN1CCCC1)C(O)(c1ccccc1)c1ccccc1,inactive: -2.65%
13,CC(C)Oc1ccc(C(=O)NCC2(N(C)C)CCCCC2)cc1,inactive: -20.3% and inactive: 24.5%
14,CN(C)c1cccc(C(=O)NCC2(N(C)C)CCCCC2)c1,inactive: 51.6%
15,O=C(NCC1(N2CCCCC2)CCCCC1)c1cc([N+](=O)[O-])ccc1Cl,inactive: 2.53%
16,CN1[C@@H]2CC[C@H]1CC(OC(=O)C(O)(c1ccccc1)c1ccccc1)C2 (some centres undefined),inactive: 0%
17,COc1cc(SC)ccc1C(=O)NCC1(N(C)C)CCCCC1,inactive: 0%

row,SMILES,"activity change, negative = inhibition"
1,CN(C)C1(CNC(=O)c2cccc(Cl)c2)CCCCC1,inactive: 0%
2,CCN(CC)CC(C)C(C)OC(=O)C(O)(c1ccccc1)c1ccccc1 (centres undefined),inactive: -2.78%
3,CC(C)N1C(=O)CC2(CCN(CCOC(=O)C(O)(c3ccccc3)c3ccccc3)CC2)C1=O,inactive: 0%
4,Cc1ccc(C(=O)NCC2(N3CCCCC3)CCCCC2)cc1,inactive: -18.6%
5,CN(C)C1(CNC(=O)c2ccccc2F)CCCCC1,inactive: -19.5%
6,CN(C)c1ccc(C(=O)NCC2(N(C)C)CCCCC2)cc1,inactive: -2.29%
7,Cc1ccccc1C(=O)NCC1(N2CCCCC2)CCCCC1,inactive: -13.6%
8,CN(C)C1(CNC(=O)c2ccccc2[N+](=O)[O-])CCCCC1,inactive: -18%
9,CCCCOc1ccccc1C(=O)NCC1(N(C)C)CCCCC1,inactive: -23.5%
10,CN(C)CCOC(=O)C(O)(c1ccccc1)C1CCCCC1 (centres undefined),inactive: 0.776%
11,O=C(NCC1(N2CCCCC2)CCCCC1)c1cc(F)c(F)cc1Cl,inactive: -20.5%
12,C=CCN1CCN(CCOC(=O)C(O)(c2ccccc2)c2ccccc2)CC1,inactive: -3.44%
13,CN(C)C1(CNC(=O)c2cccs2)CCCCC1,inactive: -55.6%
14,CCOc1cccc(C(=O)NCC2(N(C)C)CCCCC2)c1,inactive: -22.5%
15,COc1ccc(C(=O)NCC2(N(C)C)CCCCC2)cc1,inactive: -3.31%
16,O=C(NCC1(N2CCCCC2)CCCCC1)c1cccc(Br)c1,inactive: -10.9%
17,O=C(NCC1(N2CCOCC2)CCCCC1)c1cc(=O)c2ccccc2o1,inactive: -6.63%
